Reference: ChEMBL document CHEMBL2424529, “Nonpeptidic propargylamines as inhibitors of lysine specific demethylase 1 (LSD1) with cellular activity” (J Med Chem, 2013)

Amino acid sequences for entries named in this document (tags omitted).
UniProt P21397, whole entry: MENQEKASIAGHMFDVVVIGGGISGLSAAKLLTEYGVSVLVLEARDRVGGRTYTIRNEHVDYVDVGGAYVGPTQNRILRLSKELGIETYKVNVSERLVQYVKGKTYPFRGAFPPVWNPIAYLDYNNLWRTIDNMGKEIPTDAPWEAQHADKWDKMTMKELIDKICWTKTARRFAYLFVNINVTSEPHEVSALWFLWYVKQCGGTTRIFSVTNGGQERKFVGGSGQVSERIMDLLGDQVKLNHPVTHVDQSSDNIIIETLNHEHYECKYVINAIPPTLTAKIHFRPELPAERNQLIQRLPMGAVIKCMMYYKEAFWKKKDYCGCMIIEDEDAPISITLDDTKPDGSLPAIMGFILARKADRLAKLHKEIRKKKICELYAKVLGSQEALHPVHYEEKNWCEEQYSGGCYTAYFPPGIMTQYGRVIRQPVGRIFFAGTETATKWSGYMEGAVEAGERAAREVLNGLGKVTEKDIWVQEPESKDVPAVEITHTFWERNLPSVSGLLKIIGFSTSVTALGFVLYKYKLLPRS

Molecular target: Amine oxidase [flavin-containing] A (Homo sapiens, UniProt P21397)
Experiment: Inhibition of MAOA (unknown origin) using kynuramine as substrate after 1 hr by fluorescence assay
How it was run: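 Commercial MAO-A or MAO-B enzyme was used at 1:100 dilution with inhibitor in DMSO in PBS pH 7.4 (4.4 mM KH2PO4, 45 mM Na2HPO4, 100 mM NaCl). Reaction was started with kynuramine (500 µM DMSO stock added). After 1 h at 37 °C it was stopped with 2 M NaOH, and fluorescence was read (ex 330, em 390 nm).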

SMILES: C#CCN(C)Cc1ccccc1 [PARGYLINE]
- IC50: 3.39 µM
